Data taken from paper PMC2841503.

What was measured:
[1] = biological target: human pol ι UBM2 V695A (human); test: ITC
[2] = biological target: human pol ι UBM2 L699A (human); test: ITC

Question: Which results are given for “human ubiquitin (from UniProt P0CG47 1-76) (natural protein)”?
Answer: Kd [1]: 295 µM; Kd [2]: 186 µM
